From patent US6022696A, “Methods of identifying agonists or antagonists of angiotensin IV” (Washington State University Research Foundation, priority 1998, dated 2000)
Starred links: 1 amine or outer side, 2 acyl side, 3 side chain; linkers in the order of their positions; H or OH if unused. Non-standard residues stand in square brackets, D forms with d. Residues, ends and D or L forms follow the SMILES beside them. X1 = CC(C)[C@H](N)CN([C@@H](Cc1ccc(O)cc1)C(=O)[*:2])[*:1]; Nle = CCCC[C@H](N)C(=O)O; GABA = NCCCC(=O)O; Sar = CNCC(=O)O

Experiments:
AT4 receptor [1] = target: T1, AT4 receptor (Bos taurus, UniProt F1N1Q8); assay: 125I-AIV binding and competition, solubilized bovine adrenal cortical receptor; settings: read-out: Ki, competition of 125I-AIV binding
T1 sequence (F1N1Q8 1-1022): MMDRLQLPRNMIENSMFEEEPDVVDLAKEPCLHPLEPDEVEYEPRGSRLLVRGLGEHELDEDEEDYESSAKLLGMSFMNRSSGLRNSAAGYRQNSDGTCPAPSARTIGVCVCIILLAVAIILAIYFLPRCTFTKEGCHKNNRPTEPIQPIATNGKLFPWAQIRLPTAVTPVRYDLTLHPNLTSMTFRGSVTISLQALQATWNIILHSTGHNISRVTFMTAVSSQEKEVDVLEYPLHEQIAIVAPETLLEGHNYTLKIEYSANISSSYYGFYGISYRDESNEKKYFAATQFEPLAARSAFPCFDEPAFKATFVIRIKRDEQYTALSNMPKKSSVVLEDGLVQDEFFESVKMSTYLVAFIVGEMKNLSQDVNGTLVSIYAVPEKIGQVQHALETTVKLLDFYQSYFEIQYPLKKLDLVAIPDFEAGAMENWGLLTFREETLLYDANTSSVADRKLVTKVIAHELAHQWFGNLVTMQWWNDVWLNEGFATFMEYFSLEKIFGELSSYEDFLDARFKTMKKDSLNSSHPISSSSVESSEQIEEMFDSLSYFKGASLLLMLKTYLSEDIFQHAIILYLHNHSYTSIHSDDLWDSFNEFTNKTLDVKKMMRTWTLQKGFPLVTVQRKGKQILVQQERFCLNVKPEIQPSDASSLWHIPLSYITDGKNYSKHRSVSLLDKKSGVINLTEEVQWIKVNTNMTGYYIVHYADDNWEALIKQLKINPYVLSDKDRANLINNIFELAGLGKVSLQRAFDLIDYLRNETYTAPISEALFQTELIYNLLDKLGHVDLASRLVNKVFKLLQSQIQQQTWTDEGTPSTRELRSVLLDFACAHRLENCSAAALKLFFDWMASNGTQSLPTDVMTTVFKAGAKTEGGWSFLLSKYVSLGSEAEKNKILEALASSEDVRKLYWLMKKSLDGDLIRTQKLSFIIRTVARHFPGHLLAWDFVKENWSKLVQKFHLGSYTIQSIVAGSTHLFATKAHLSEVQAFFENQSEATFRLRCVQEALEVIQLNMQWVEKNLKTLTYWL

AT4 receptor [2] = target: T1, AT4 receptor; assay: 125I-AIV binding and competition, bovine adrenal cortical membranes; settings: read-out: Ki, competition of 125I-AIV binding
AT4 receptor [3] = target: T1, AT4 receptor; assay: 125I-AIV binding and competition, bovine coronary venular endothelial cell (CVEC) membranes
AT4 receptor [4] = target: T2, AT4 receptor (Oryctolagus cuniculus, UniProt G1SFU4); assay: 125I-AIV binding and competition, rabbit heart P2 membranes; settings: read-out: Ki, competition of 125I-AIV binding; 0.5 nM 125I-AIV, 120 min, 37° C.
T2 sequence (G1SFU4 1-1025): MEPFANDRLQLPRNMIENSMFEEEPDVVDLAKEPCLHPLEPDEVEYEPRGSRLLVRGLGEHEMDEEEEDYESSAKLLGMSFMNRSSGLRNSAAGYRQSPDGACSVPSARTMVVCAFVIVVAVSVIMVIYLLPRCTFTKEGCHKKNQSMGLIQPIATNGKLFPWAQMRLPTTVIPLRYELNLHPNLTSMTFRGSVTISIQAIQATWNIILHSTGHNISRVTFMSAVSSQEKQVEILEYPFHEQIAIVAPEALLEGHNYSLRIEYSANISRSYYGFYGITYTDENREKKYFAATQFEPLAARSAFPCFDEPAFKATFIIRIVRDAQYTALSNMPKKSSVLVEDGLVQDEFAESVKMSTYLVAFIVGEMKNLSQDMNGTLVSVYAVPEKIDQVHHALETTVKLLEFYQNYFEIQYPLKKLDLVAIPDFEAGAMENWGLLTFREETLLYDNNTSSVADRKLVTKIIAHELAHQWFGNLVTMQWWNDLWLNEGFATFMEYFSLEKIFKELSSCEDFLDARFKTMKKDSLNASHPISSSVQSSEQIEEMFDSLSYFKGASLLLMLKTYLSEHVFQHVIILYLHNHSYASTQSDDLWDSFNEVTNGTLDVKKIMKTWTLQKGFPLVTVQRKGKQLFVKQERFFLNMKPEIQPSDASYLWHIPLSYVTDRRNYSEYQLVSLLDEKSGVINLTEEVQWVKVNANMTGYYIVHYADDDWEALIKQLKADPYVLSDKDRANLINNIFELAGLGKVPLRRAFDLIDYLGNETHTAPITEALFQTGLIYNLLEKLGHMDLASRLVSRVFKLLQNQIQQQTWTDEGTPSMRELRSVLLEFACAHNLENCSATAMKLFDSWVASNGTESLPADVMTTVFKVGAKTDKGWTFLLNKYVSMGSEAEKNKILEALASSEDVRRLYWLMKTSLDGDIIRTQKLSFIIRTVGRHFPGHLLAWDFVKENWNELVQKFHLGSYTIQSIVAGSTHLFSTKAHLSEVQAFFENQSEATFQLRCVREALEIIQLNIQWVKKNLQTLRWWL

AT4 receptor [5] = target: T3, AT4 receptor (Cavia porcellus, UniProt H0VNM7); assay: 125I-AIV binding and competition, guinea pig hippocampus membranes; settings: read-out: Ki, competition of 125I-AIV binding, 0.6 nM 125I-AIV
T3 sequence (H0VNM7 1-1025): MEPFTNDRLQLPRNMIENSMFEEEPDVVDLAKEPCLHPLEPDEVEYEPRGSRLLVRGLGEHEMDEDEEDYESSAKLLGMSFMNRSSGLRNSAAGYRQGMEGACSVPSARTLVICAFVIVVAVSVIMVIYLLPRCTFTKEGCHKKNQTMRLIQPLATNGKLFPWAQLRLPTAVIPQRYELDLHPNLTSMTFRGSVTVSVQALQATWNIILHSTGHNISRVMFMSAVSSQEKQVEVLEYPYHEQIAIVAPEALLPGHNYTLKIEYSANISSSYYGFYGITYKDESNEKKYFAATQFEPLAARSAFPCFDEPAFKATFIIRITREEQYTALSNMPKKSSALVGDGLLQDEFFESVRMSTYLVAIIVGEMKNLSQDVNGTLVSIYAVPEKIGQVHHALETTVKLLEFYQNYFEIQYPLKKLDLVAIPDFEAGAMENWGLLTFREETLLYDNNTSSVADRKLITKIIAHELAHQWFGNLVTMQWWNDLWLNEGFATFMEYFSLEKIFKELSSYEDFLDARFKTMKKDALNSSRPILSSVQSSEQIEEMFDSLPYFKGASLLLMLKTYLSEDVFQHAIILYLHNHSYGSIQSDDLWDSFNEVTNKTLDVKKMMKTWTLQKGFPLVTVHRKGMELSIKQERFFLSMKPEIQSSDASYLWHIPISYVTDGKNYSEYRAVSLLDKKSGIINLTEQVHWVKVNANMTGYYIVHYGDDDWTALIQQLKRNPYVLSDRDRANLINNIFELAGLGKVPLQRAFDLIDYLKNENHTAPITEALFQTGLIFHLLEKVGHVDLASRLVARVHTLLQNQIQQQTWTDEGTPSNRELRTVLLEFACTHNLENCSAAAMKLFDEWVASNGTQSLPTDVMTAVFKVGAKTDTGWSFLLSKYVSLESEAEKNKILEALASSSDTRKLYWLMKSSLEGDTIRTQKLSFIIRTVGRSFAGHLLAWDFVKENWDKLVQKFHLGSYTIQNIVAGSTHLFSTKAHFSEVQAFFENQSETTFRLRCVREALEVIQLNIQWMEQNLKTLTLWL

[6] = solubilized bovine adrenal cortical receptor
[7] = bovine adrenal cortical membranes
[8] = read-out: Ki, competition of 125I-AIV binding, 0.5 nM 125I-AIV

Molecule | Ki (AT4 receptor [1]; [6]) | other results
CC(C)[C@H](N)C(=O)N[C@@H](Cc1ccc(O)cc1)C(=O)N[C@H](CN[C@@H](Cc1c[nH]cn1)C(=O)N1CCC[C@H]1C(=O)N[C@@H](Cc1ccccc1)C(=O)O)C(C)C [Val3 AIV] | 10.1 nM | –
CC[C@H](C)[C@H](NC(=O)[C@H](Cc1ccc(O)cc1)NC(=O)[C@@H](NC(=O)[C@H](CCCNC(=N)N)NC(=O)CNC)C(C)C)C(=O)N[C@@H](Cc1cnc[nH]1)C(=O)N1CCC[C@H]1C(=O)N[C@@H](Cc1ccccc1)C(=O)O [Sar1-AII] | 280 nM | –
CC[C@H](C)[C@H](NC(=O)[C@H](Cc1ccc(O)cc1)NC(=O)[C@@H](N)C(C)C)C(=O)N[C@@H](Cc1cnc[nH]1)C(=O)O [VYIH] (H-VYIH-OH) | – | Ki (AT4 receptor [2]; bovine adrenal cortical AT4 receptor): > 500 nM
CC[C@H](C)[C@H](NC(=O)[C@H](Cc1ccc(O)cc1)NC(=O)[C@@H](N)C(C)C)C(=O)N[C@@H](Cc1c[nH]cn1)C(=O)N1CCC[C@H]1C(=O)N[C@@H](Cc1ccccc1)C(=O)N[C@@H](Cc1c[nH]cn1)C(=O)N[C@@H](CC(C)C)C(=O)O [AI(3-10)] (H-VYIHPFHL-OH) | 0.963 nM | –
CC[C@H](C)[C@H](NC(=O)[C@@H]1CCCN1C(=O)[C@H](Cc1c[nH]cn1)NC(=O)[C@@H](NC(=O)[C@H](Cc1ccc(O)cc1)NC(=O)[C@@H](NC(=O)[C@H](CCCN=C(N)N)NC(=O)CNC)C(C)C)[C@@H](C)CC)C(=O)O [Sar1,Ile8-AII] | > 1000 nM | Ki (AT4 receptor [2]; [7]): > 1000 nM; Ki (AT4 receptor [3]; [8]): 261 ± 89.1 nM
CC[C@H](C)[C@H](NC(=O)[C@H](Cc1ccc(O)cc1)NC(=O)[C@@H](NC(=O)CNC)C(C)C)C(=O)N[C@@H](Cc1c[nH]cn1)C(=O)N1CCC[C@H]1C(=O)N[C@@H](Cc1ccccc1)C(=O)O [Sar1-AIII] (H-[Sar]VYIHPF-OH) | 82.5 nM | –
CC[C@H](C)[C@H](NC(=O)[C@H](Cc1ccc(O)cc1)NC(=O)[C@@H](NC(=O)[C@H](CCCNC(=N)N)NC(=O)[C@@H](N)CC(=O)O)C(C)C)C(=O)N[C@@H](Cc1cnc[nH]1)C(=O)N1CCC[C@H]1C(=O)N[C@@H](Cc1ccccc1)C(=O)O [AII, Asp1 Arg2 Val3 Tyr4 Ile5 His6 Pro7 Phe8, reference compound] | > 1000 nM | Ki (AT4 receptor [2]; [7]): > 1000 nM; Ki (AT4 receptor [3]; [8]): 194 ± 44.5 nM
CCCC[C@H](N)C(=O)N[C@@H](Cc1ccccc1)C(=O)N[C@H](C(=O)O)[C@@H](C)CC [Nle-F-I] (H-[Nle]-Phe-Ile-OH) | 51.7 nM | –
CC(C)[C@H](N)CN[C@@H](Cc1ccc(O)cc1)C(=O)N[C@H](CN[C@@H](Cc1c[nH]cn1)C(=O)N1CCC[C@H]1C(=O)N[C@@H](Cc1ccccc1)C(=O)O)C(C)C [Val1 Val3 AIV, ^+ H3 N-Val(CH2 NH)Tyr-Val(CH2 NH)-His-Pro-Phe-COO--] | 1.29 nM | –
CC[C@H](C)[C@H](NC(=O)[C@H](Cc1ccc(O)cc1)NC[C@@H](N)C(C)C)C(=O)N[C@@H](Cc1c[nH]cn1)C(=O)N1CCC[C@H]1C(=O)N[C@@H](Cc1ccccc1)C(=O)O [Val1 AIV] (H-[X1]IHPF-OH) | 16.9 nM | –
CCCC[C@H](N)C(=O)N[C@@H](Cc1ccc(O)cc1)C(=O)N[C@H](C(=O)O)[C@@H](C)CC [Nle-Y-I] (H-[Nle]-Tyr-Ile-OH) | – | Ki (AT4 receptor [1]): 8.3 nM
CCCC[C@H](N)C(=O)N[C@@H](Cc1ccc(O)cc1)C(=O)N[C@H](C(=O)NCC(=O)O)[C@@H](C)CC [Nle-Y-I-G] (H-[Nle]YIG-OH) | 8.75 nM | –
CCCC[C@H](N)C(=O)N[C@@H](Cc1ccc(O)cc1)C(=O)N[C@H](C(N)=O)[C@@H](C)CC [Nle-Y-I amide] (H-[Nle]-Tyr-Ile-NH2) | – | Ki (AT4 receptor [1]): 2.06 nM
CC[C@H](C)[C@H](NC(=O)[C@H](Cc1ccc(O)cc1)NC(=O)[C@@H](N)C(C)C)C(=O)N[C@@H](Cc1cnc[nH]1)C(=O)N1CCC[C@H]1C(=O)O [des Phe6-AIV] (H-VYIHP-OH) | 74.5 nM | Ki (AT4 receptor [3]; [8]): 7.3 ± 1.2 nM
CC[C@H](C)[C@H](NC(=O)[C@H](Cc1ccc(O)cc1)NC(=O)[C@@H](NC(=O)CCCN)C(C)C)C(=O)N[C@@H](Cc1c[nH]cn1)C(=O)N1CCC[C@H]1C(=O)N[C@@H](Cc1ccccc1)C(=O)O [GABA-Nterm-AIV] (H-[GABA]VYIHPF-OH) | > 1000 nM | –
CC[C@H](C)[C@H](NC(=O)[C@H](Cc1ccc(O)cc1)NC(=O)[C@@H](NC(=O)[C@H](CCCNC(=N)N)NC(=O)[C@@H](N)CC(=O)O)C(C)C)C(=O)N[C@@H](Cc1c[nH]cn1)C(=O)N1CCC[C@H]1C(=O)O [des Phe8-AII] | > 1000 nM | –
CGP42112A | > 100000 nM | Ki (AT4 receptor [2]; [7]): > 100000 nM; Ki (AT4 receptor [4]): > 1000 nM; Ki (AT4 receptor [3]; read-out: Ki, competition of 125I-AIV binding, unit inferred): > 100000 nM; Ki (AT4 receptor [5]): > 100000 nM
CC[C@H](C)[C@H](NC(=O)[C@H](Cc1ccc(O)cc1)NC(=O)[C@@H](N)CCCCN)C(=O)O [KYI] (H-Lys-Tyr-Ile-OH) | 30 nM | –
